Results published in article PMC4946713 (Cancer Science, 2016).

Tested on: MDA‐MB‐468 cells
Experiment: Coculture cell killing assay, HER2‐negative cells
Type: cell-based, human
Details: coculture KPL‐4 + MDA‐MB‐468; 10 nM ADC, 5 days

For “T‐DM1: FDA‐approved HER2‐targeting ADC composed of trastuzumab, a non‐cleavable linker, and tubulin polymerization inhibitor DM1”, which “Killing of MDA‐MB‐468 cells in coculture (bystander killing)” value is on record?
Its value is “did not show a bystander killing effect”.
